# Assay results as given in patent US20250325542A1, “INHIBITORS OF ANTIMOCROBIAL RESISTANCE AND METHOS USING SAME” (Baylor College of Medicine, priority 2022, published 2025).
# Protein sequences, listed by entry. Tags and fused reporters are not part of them.
# UniProt C7C422, whole entry, looked up, species assumed: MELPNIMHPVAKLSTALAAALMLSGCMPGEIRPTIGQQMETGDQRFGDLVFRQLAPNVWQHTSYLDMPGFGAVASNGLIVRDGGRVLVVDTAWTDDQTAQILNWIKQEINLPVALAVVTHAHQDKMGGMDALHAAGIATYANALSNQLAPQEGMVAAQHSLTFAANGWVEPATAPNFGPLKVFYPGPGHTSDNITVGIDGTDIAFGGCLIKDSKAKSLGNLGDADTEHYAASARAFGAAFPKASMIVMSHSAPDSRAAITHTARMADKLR
# Biological target: NDM-1 (Klebsiella pneumoniae, UniProt C7C422)
# Assay: biochemical
compound,measurement,value
"CN(C)C(=O)c1ccc(CNCc2ccc(O)c(C(=O)O)c2)s1 [CDD-2350, 5-((((5-(dimethylcarbamoyl)thiophen-2-yl)methyl)amino)methyl)-2-hydroxybenzoic acid]",pKi,< 4.00

# pKi: −log10 of the molar value.
